From US9962334B2, “Ophthalmic device having therapeutic agent delivery capability and method of forming same” (Novartis AG, priority 2008, dated 2018)

Details: soaking in BSS at 37° C.

CO[C@@]12[C@H](COC(N)=O)C3=C(C(=O)C(C)=C(N)C3=O)N1C[C@@H]1N[C@@H]12 [Mitomycin-C]
total MMC loaded into the lens remaining after 11 days: Approximately 20%
